pIC50: −log10 of the molar value.
Key:
[1] = biological target: Cholinesterase (Homo sapiens, UniProt P06276)
[2] = biological target: Acetylcholinesterase (Homo sapiens, UniProt P22303); conditions: pH 8; 37 °C

Amino acid sequences for entries named in this document (tags omitted). A change or cut given only in a name is not applied to a line headed by its entry.
UniProt P06276, whole entry: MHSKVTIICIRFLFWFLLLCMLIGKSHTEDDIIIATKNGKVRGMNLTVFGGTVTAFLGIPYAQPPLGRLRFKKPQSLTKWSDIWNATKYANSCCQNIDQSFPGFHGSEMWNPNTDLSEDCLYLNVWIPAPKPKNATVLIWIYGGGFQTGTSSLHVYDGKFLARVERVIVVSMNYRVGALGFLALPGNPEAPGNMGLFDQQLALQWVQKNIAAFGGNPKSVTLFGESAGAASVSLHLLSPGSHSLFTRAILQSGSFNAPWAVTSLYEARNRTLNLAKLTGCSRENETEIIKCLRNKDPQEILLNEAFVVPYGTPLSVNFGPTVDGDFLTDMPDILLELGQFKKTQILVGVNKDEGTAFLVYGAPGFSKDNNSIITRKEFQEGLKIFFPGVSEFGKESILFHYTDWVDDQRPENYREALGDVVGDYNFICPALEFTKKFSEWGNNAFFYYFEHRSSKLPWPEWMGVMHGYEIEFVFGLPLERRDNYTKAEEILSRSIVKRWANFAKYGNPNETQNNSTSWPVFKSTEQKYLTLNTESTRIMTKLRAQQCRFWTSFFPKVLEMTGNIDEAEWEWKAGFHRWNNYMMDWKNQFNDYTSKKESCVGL
UniProt P22303: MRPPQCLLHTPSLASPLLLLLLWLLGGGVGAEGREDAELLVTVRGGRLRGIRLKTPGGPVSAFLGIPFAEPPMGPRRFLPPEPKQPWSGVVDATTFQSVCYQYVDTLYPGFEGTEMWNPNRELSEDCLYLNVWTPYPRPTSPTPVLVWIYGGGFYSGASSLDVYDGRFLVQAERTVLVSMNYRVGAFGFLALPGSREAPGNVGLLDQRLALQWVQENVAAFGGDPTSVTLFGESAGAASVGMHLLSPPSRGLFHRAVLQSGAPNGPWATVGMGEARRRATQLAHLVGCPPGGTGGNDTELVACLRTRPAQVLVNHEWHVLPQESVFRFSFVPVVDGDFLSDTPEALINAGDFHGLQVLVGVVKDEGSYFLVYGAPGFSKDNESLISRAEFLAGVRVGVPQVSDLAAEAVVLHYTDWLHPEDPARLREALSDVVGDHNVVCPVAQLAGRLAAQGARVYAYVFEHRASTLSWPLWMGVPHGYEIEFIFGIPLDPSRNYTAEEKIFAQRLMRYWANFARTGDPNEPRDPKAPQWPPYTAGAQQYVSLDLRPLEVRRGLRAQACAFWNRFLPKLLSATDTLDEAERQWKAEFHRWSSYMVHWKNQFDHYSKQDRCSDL

Compound	pIC50 [1]	pIC50 [2]
CC(C)c1ccc(NC(=O)Oc2ccc3c(c2)[C@@]2(C)CCN(C)C2N3C)cc1 (stereo partly drawn) [(+)-(3aR)-1,3a,8-Trimethyl-1,2,3,3a,8,8a-hexahydropyrrolo-[2,3-b]indol-5-yl N-(4-Isopropylphenyl)carbamate]	5.29	
Cc1ccccc1NC(=O)Oc1ccc2c(c1)[C@]1(C)CCOC1O2 (stereo partly drawn) [(2S)-2-methyl-5,7-dioxatricyclo[6.4.0.0^{2,6}]dodeca-1(12),8,10-trien-11-yl N-(2-methylphenyl)carbamate]		7.70
Cc1ccccc1NC(=O)Oc1ccc2c(c1)[C@@]1(C)CCOC1O2 (stereo partly drawn) [(+)-(3aR)-3a-Methyl-2,3,3a,8a-Tetrahydrofuro[2,3-b]benzofuran-5-yl N-(o-Tolyl)carbamate]		7.44

Source: BindingDB's records for doi:10.1021/jm050578p (National Institutes of Health, 2006)
